From patent US10202344B2, “Aryl substituted indoles and the use thereof” (Purdue Pharma L.P., priority 2010, dated 2019)

By UniProt entry, the sequences of proteins in these tests, tags left out. Chains listed by the source or under a name are the forms on record and can include a tag or linker.
UniProt Q15858, other isoform, or with tags, fused parts or gaps: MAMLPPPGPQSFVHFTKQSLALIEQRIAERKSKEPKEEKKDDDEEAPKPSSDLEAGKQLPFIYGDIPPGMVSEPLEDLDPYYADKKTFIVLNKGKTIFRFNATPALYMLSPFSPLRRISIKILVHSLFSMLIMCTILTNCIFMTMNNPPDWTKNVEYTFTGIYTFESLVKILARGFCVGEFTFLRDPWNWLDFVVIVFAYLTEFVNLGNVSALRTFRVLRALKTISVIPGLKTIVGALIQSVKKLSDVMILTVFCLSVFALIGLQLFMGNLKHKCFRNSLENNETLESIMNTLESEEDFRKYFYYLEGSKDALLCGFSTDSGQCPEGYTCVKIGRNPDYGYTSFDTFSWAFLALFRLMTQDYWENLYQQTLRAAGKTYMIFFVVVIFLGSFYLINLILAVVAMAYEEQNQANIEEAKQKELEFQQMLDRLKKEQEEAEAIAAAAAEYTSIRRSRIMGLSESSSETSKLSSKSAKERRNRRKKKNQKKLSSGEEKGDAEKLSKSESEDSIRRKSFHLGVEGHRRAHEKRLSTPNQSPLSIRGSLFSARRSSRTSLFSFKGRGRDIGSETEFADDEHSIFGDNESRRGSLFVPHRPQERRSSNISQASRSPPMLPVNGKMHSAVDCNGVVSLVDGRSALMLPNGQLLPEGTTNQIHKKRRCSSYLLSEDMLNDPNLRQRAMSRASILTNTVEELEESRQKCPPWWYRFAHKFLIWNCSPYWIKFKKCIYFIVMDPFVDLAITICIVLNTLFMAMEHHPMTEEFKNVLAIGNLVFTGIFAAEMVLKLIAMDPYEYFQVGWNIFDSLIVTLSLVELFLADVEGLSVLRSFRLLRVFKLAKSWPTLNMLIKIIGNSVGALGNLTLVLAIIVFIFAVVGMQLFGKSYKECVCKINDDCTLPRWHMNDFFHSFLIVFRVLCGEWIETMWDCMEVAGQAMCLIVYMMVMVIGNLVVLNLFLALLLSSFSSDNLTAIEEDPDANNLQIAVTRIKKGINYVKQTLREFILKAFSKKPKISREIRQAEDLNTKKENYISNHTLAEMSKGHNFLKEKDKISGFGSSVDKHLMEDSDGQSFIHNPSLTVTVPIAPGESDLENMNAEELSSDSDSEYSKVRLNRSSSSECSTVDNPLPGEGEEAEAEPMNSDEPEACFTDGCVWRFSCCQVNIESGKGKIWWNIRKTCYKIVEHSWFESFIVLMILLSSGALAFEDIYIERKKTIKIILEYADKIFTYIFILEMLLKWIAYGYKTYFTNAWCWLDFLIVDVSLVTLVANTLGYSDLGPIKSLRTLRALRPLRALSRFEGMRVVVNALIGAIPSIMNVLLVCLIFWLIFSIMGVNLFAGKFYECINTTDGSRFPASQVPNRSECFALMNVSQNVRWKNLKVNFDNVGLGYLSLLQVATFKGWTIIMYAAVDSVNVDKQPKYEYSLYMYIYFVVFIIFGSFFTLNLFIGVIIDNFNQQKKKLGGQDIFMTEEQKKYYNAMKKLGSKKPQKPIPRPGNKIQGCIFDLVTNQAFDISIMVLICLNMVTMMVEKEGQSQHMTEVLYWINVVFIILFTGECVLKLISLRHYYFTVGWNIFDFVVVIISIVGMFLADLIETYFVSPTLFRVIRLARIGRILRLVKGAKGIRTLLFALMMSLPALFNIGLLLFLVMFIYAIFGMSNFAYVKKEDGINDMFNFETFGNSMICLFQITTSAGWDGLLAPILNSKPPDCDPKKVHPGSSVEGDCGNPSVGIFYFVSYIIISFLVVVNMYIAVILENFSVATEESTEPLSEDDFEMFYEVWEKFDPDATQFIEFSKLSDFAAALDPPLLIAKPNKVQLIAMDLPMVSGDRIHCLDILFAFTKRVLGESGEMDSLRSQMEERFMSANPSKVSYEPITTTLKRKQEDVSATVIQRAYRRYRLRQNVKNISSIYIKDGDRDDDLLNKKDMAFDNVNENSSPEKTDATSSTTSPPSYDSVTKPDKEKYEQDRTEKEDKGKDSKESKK

How the values were obtained:
[1] = molecular target: human Nav1.7 (Homo sapiens (Human), UniProt Q15858); experiment: FLIPR or FLIPR TETRA sodium dye assay with KCl and test article pre-incubation; assay type: cell-based; details: recombinant human Nav1.7 in HEK293 cells; sodium dye assay with KCl; read-out: FLIPR Nav1.7 IC50 (μM) ± SEM
[2] = molecular target: hNav1.7 (Homo sapiens (Human), UniProt Q15858); experiment: Electrophysiology (EP) assay, whole-cell patch clamp; assay type: cell-based; details: hNav1.7 expressing HEK-293 cells, read-out: EP Nav1.7 Ki

`OC[C@H](O)c1nn(-c2ccc(Oc3ccc(C(F)(F)F)cc3)cc2)c2cnccc12` [Compound 166, (R)-1-(1-(4-(4-(trifluoromethyl)phenoxy)phenyl)-1H-pyrazolo[3,4-c]pyridine-3-yl)ethane-1,2-diol] gave an IC50 [1] of 0.486 ± 0.024 µM and a Ki [2] of 640 nM.
